Measurements reported in US10287337B2 (priority 2015, dated 2019).

The chains behind the UniProt entries cited, without tags or fusion partners. Residues count along the entry.
UniProt O60894, 27-148: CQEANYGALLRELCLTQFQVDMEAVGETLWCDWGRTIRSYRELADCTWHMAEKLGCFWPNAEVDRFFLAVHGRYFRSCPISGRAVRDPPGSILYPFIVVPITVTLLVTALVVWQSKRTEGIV
UniProt Q16602, 23-461: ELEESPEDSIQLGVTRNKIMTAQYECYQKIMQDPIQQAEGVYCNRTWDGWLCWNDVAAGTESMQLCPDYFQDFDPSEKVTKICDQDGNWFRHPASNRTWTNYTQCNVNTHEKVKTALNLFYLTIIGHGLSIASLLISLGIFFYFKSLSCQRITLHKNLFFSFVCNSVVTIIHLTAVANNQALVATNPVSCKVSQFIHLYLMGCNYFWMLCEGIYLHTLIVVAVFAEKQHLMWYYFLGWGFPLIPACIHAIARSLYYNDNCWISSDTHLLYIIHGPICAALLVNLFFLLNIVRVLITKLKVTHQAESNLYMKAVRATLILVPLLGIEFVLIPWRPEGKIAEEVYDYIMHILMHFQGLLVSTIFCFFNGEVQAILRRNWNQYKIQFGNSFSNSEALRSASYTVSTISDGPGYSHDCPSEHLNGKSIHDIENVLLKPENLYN

Key:
[1] = molecular target: T1, human calcitonin CGRP1 (CGRP1) membrane (Homo sapiens, UniProt O60894+Q16602); format: binding
T1 construct: purchased Perkin Elmer (Waltham, Mass.)
Procedure: CGRP1 membrane was homogenized in the assay buffer (50 mM Tris-HCl pH 7.4, 5 mM MgCl2, 0.5% BSA, 0.05% Tween20). […] After 1 h of incubation, at room temperature, samples were filtered, using a Tomtec cell harvester, through glass fiber filters that had been presoaked in 0.05% polyethyleneimine and washed with the cold Tris buffer (50 mM Tris-HCl pH7.4). Filters were counted on a betaplate reader (Wallac).

[2] = tested on: STZ-induced diabetic pain in rats; test: Streptozotocin (STZ)-induced diabetic neuropathic pain model; settings: rat, in vivo
Procedure: Painful peripheral neuropathy is a common secondary complication of diabetes mellitus. Streptozotocin (STZ)-induced diabetic polyneuropathy causes more broad pain and has neurogenic inflammation component in rodents (Bishnoi et al., 2011). Prior to STZ administration, each rat's baseline of thermal and mechanical thresholds on their individual hindpaws were assessed using the Hargreaves thermal pain test, and von Frey mechanical pain test, respectively.
After removing the patches, hindpaw withdrawal latencies induced by continuous and noxious heat (Hargreaves) were assessed at 1 hour post-microneedle application.

In the case of `CSCC[C@H](NC(=O)CNC(=O)CNC(=O)[C@H](CO)NC(=O)[C@H](CCCNC(=N)N)NC(=O)[C@H](CO)NC(=O)[C@H](CC(C)C)NC(=O)[C@H](CC(C)C)NC(=O)CNC(=O)[C@H](C)NC(=O)[C@H](CC(C)C)NC(=O)[C@H](CCCNC(=N)N)NC(=O)[C@H](Cc1c[nH]cn1)NC(=O)[C@@H](NC(=O)[C@@H](N)C(C)C)[C@@H](C)O)C(=O)N[C@H](C(=O)N[C@@H](CCCCN)C(=O)N[C@@H](CO)C(=O)N[C@@H](CC(N)=O)C(=O)N[C@@H](Cc1ccccc1)C(=O)N[C@H](C(=O)N1CCC[C@H]1C(=O)N[C@H](C(=O)N[C@@H](CC(N)=O)C(=O)N[C@H](C(=O)NCC(=O)N[C@@H](CO)C(=O)N[C@@H](CCCCN)C(=O)N[C@@H](C)C(=O)N[C@@H](Cc1ccccc1)C(N)=O)C(C)C)[C@@H](C)O)C(C)C)C(C)C` [CGRP 8-37], the Hill slope [1] is reported as 1.21 ± 0.20 and the “mechanical stimulation withstood relative to prior to STZ injection” value [2] is reported as 55%.
